The conditions of the data set: mouse, in vivo.

In the case of “poly(Maleic Anhydride-Alt-1-Octadecene) substituted with 3-(Dimethylamino) Propylamine [Formulation F16]”, the “reduction of serum transaminases with respect to unformulated vaccine” value is reported as 40% and the tolerability entry is “well tolerated”.

The values are drawn from patent US12440550B2 (priority 2015, dated 2025).
